From PubChem BioAssay AID2216 (Broad Institute, 2009)
This is a selection; strong and weak results do not stand in their true shares. Records with an inconclusive call do not appear. Some structures show a salt or complex split into parts, the way the source records it. The source made the active and inactive calls.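 The calls were made as follows: active = more than half of the replicate wells show a fall in the fluorescence ratio signal beyond about 16% (limit read from the data, passing the limit was not always enough); inconclusive = exactly half of the replicate wells pass the set limit; inactive = fewer than half of replicates pass the limit.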

What follows are compounds tested on Ran GTPase (GTP-bound) - importin-beta complex (assay: disruptors of Ran-importin-beta complex formation – biochemical, FRET, CFP-Ran, YFP-importin-beta, homogeneous, primary screen (AID 2216;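 also: 0% = DMSO wells and 100% = Ran loaded with GDP instead of GTP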)). Details: cell-free CFP-Ran/YFP-importin-beta FRET ratio; hits give high values; concentration not given here.

| Structure (SMILES) | inhibition |
| --- | --- |
| COc1ccc2c(c1O)-c1c(O)c(OC)cc3c1[C@H](C2)[N+](C)(C)CC3.O=[N+]([O-])c1cc([N+](=O)[O-])c([O-])c([N+](=O)[O-])c1[O-] | inactive: -0.738% |
| O=C(OC1CN2CCC1CC2)c1ccc([N+](=O)[O-])cc1 (stereo unspecified) | inactive: -0.091% |
| CC(=O)c1ccc(N2CC2c2ccncc2)cc1 (stereo unspecified) | inactive: -2.44% |
| C[C@H]1OP(=O)(Oc2ccccc2)C[C@@H]2O[C@@H]21 (stereo partly specified) | inactive: -1.79% |
| C[C@@H]1C=CCP(=O)(Oc2ccccc2)O1 (stereo partly specified) | inactive: -4.64% |
| O=C(OCCN1CCN(CCOCc2ccccc2)CC1)C(O)(c1ccccc1)c1ccccc1 | inactive: 2.17% |
| CP(=O)(Nc1ccccc1F)Oc1ccccc1 (stereo unspecified) | inactive: 1.25% |
| CC(C)c1ccc(OP(C)(=O)Nc2ccc(SC(F)(F)F)cc2)cc1 (stereo unspecified) | inactive: -0.453% |
| CC(C)(C)C(=O)NC(Sc1ccccc1)C(Cl)(Cl)Cl (stereo unspecified) | inactive: 1.41% |
| CCOc1ccc(C2=NCC(CBr)S2)cc1 (stereo unspecified) | inactive: 6.41% |
| O=P1(Nc2nc3ccc(Cl)cc3s2)COc2ccccc2O1 (stereo unspecified) | inactive: 1.16% |
| CP(=O)(Nc1ccccc1)Oc1ccc(F)cc1 (stereo unspecified) | inactive: -1.94% |
| CCCCCOc1ccc(NP(C)(=O)Oc2ccc(Cl)cc2Cl)cc1 (stereo unspecified) | inactive: 5.65% |
| O=[N+]([O-])c1cc([N+](=O)[O-])c(OC2CCCCC2O)c([N+](=O)[O-])c1 (stereo unspecified) | inactive: -1.04% |
| Cc1ccccc1OP(=O)(Nc1ccccn1)Oc1ccccc1C | inactive: 3.87% |
| Cc1ccc(OP(=O)(Nc2ccccn2)Oc2ccc(C)cc2)cc1 | inactive: 1.02% |
| CC(=O)NC(SC(=S)N(CC(C)C)CC(C)C)C(Cl)(Cl)Cl (stereo unspecified) | inactive: 0.772% |
| COC(=O)c1cc2c(s1)N=C(c1ccccc1)N(C)P2(=O)N1CCOCC1 (stereo unspecified) | inactive: 4% |
| CCC(=O)N1C2C3N(C(=O)CC)C1C1N(C(=O)CC)C(C(N1C(=O)CC)N3C(=O)CC)N2C(=O)CC | inactive: 3.73% |
| CCN(CC)CCCOC(=O)C(O)(c1ccccc1)C1CCCCC1 (stereo unspecified) | inactive: -3.4% |
| O=C(OC1CN2CCC1CC2)c1ccccc1 (stereo unspecified) | inactive: 3.89% |

| Structure (SMILES) | inhibition |
| --- | --- |
| CCOC(=O)c1ccc(NP(C)(=O)Oc2ccc(F)cc2)cc1 (stereo unspecified) | inactive: 1.06% |
| COc1ccc(OP(C)(=O)Nc2ccc(SC(F)(F)F)cc2)cc1 (stereo unspecified) | inactive: -1.26% |
| O=C(NC1CCS(=O)(=O)C1)NP(=S)(Oc1ccccc1)Oc1ccccc1 (stereo unspecified) | inactive: -2.06% |
| CCOC(=O)NC(Sc1ccccc1)C(Cl)(Cl)Cl (stereo unspecified) | inactive: 0.0659% |
| Cc1ccc(NP(=O)(Oc2cccc(C)c2)Oc2cccc(C)c2)nc1 | inactive: 1.07% |
| c1ccc(-c2nn[nH]n2)c(-c2nn[nH]n2)c1 | inactive: 1.89% |
| C(Cc1nn[nH]n1)Cc1nn[nH]n1 | inactive: -2.67% |
| Nc1ccc([As](=O)(O)c2ccc([N+](=O)[O-])cc2)cc1 | inactive: 2.51% |
| O=[N+]([O-])c1ncn(CCn2cnc([N+](=O)[O-])n2)n1 | inactive: 2.09% |
| CC(=O)NC(SC(=S)N(C)C)C(Cl)(Cl)Cl (stereo unspecified) | inactive: 5.61% |
| O=[N+]([O-])c1ccc(OP2(=O)COCCO2)cc1 (stereo unspecified) | inactive: -2.5% |
| O=[N+]([O-])c1ccc(O)c(/C=N/Nc2ccc([N+](=O)[O-])cc2[N+](=O)[O-])c1 | inactive: 2.54% |
| O=[N+]([O-])c1cc([N+](=O)[O-])c(NCC2CCS(=O)(=O)C2)c([N+](=O)[O-])c1 (stereo unspecified) | inactive: 1.35% |
| Cc1cc(-c2cccc3ccccc23)c(C)cn1.O=[N+]([O-])c1cc([N+](=O)[O-])c(O)c([N+](=O)[O-])c1 | inactive: -1.15% |
| O=[As](O)(c1ccccc1)c1ccc(O)cc1 | inactive: 3.03% |
| C[C@H]1OP(=O)(Oc2ccccc2)[C@H](O)[C@H](O)[C@H]1N=[N+]=[N-] (stereo partly specified) | inactive: -1.85% |
| CN(C)CCOC(=O)C(O)(c1ccccc1)C1CCCCC1 (stereo unspecified) | inactive: 1.64% |
| COc1ccc(NP(C)(=O)Oc2ccccc2OC)cc1 (stereo unspecified) | inactive: -2.22% |
| COc1ccc(OP(C)(=O)Nc2cccc(Br)c2)cc1 (stereo unspecified) | inactive: 2.62% |
| CN(C)C1(CNC(=O)c2ccc(Cl)c(S(N)(=O)=O)c2)CCCCC1 | inactive: -1.57% |
| O=P(Nc1ccccn1)(c1ccc(Br)cc1)c1ccc(Br)cc1 | inactive: 1.62% |

| Structure (SMILES) | inhibition |
| --- | --- |
| Cc1ccccc1NP(C)(=O)Nc1ccccc1C | inactive: -0.743% |
| CP(=O)(Nc1ccc2c(c1)OCCO2)Oc1ccccc1 (stereo unspecified) | inactive: 0.109% |
| CCOP(C)(=S)SCC(=O)NC(C)(CC)C(=O)O (stereo unspecified) | inactive: -3.42% |
| c1nnnn1CCn1cnnn1 | inactive: 6.85% |
| CP(=O)(Nc1ccc(SC(F)(F)F)cc1)Oc1ccc(F)cc1 (stereo unspecified) | inactive: 0.946% |
| O=P(Nc1nccs1)(c1ccccc1)c1ccccc1 | inactive: 0.212% |
| CC(C)C(=O)NC(Sc1ccccc1)C(Cl)(Cl)Cl (stereo unspecified) | inactive: 3.8% |
| CC1(CBr)Cn2c(nc3ccccc3c2=O)S1 (stereo unspecified) | inactive: -1.45% |
| O=[As](O)(c1ccccc1Br)c1ccccc1Br | inactive: 4.69% |
| CN(C(=O)Cc1ccc(Cl)c(Cl)c1)[C@@H]1CCCC[C@H]1N1CCCC1 | inactive: -0.526% |
| CC(C)/C=N\N=C(\N)N[N+](=O)[O-] | inactive: 2.75% |
| COc1ccccc1CNC(=O)COC(=O)C(O)(c1ccccc1)c1ccccc1 | inactive: -0.391% |
| O=[N+]([O-])c1cc([N+](=O)[O-])c(-c2cnn(-c3ccccc3)c2)c([N+](=O)[O-])c1 | inactive: -1.82% |
| CC(C)(C)C(=O)NC(Sc1ncccn1)C(Cl)(Cl)Cl (stereo unspecified) | inactive: 1.73% |
| Clc1n[nH]nc1-c1nn[nH][15n]1 | inactive: -2.56% |
| CCOP(=O)(Nc1ccc(C)cn1)OCC | inactive: 2% |
| CN(CCCl)Cc1cc(Cl)c(NC2=NCCN2)c(Cl)c1 | inactive: -0.618% |
| O=[N+]([O-])c1cc([N+](=O)[O-])c(-n2nnc3ccccc32)c([N+](=O)[O-])c1 | inactive: 4.41% |
| CCOP(=O)(NC(=NC(C)c1ccccc1)NC(C)c1ccccc1)OCC (stereo unspecified) | inactive: -0.806% |
